{
  "source": "paper PMC3390344",
  "about": "“Antibacterial Activity and Mechanism of a Scorpion Venom Peptide Derivative In Vitro and In Vivo” (PLoS ONE, 2012)",
  "system": "methicillin-resistant coagulase-negative Staphylococcus (MRCNS) P1369",
  "format": "cell-based",
  "settings": "P1369, methicillin resistant (MRCNS) clinical isolate; repeated at least three times",
  "procedure": "Clinical isolates were obtained from the 302nd military hospital of Beijing, China, including penicillin-resistant S. aureus (PRSA) P1383, penicillin-resistant S. epidermidis (PRSE) P1389, methicillin-resistant S. aureus (MRSA) P1381, P1386 and P1374, methicillin-resistant coagulase-negative Staphylococcus (MRCNS) P1369, and penicillin-sensitive S. epidermidis (PSSE) P1111.\nThe MIC was determined via a microdilution assay in 96-well microtiter plates according to the broth microdilution guideline of Clinical and Laboratory Standards Institute (CLSI).",
  "data": [
    {"substance": "Penicillin", "values": [
      {"measurement": "MIC", "value": 20, "unit": "mg/mL"}
    ]}
  ]
}
